The values that follow come from US4713369A, “Oligopeptidylargininol derivatives and their homologs, a process for their preparation, their use and agents containing them” (Behringwerke Aktiengellschaft, priority 1985, dated 1987).

Protein sequences, listed by entry. Tags and fused reporters are not part of them. Residues count along the entry.
UniProt P00742, 41-179 partner limits assumed: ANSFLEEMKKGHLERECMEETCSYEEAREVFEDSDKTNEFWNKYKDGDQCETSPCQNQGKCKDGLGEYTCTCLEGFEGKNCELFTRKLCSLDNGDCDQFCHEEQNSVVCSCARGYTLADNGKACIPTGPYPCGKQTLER
UniProt P00742, 235-488 limits assumed: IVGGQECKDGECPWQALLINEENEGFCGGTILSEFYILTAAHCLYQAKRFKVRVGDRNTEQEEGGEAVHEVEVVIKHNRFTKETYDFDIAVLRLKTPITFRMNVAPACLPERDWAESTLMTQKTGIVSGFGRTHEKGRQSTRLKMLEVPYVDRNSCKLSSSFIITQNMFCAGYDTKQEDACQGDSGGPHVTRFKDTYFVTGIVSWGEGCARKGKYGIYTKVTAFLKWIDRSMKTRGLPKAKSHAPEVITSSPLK
UniProt P00747, 97-580 partner limits assumed, species assumed: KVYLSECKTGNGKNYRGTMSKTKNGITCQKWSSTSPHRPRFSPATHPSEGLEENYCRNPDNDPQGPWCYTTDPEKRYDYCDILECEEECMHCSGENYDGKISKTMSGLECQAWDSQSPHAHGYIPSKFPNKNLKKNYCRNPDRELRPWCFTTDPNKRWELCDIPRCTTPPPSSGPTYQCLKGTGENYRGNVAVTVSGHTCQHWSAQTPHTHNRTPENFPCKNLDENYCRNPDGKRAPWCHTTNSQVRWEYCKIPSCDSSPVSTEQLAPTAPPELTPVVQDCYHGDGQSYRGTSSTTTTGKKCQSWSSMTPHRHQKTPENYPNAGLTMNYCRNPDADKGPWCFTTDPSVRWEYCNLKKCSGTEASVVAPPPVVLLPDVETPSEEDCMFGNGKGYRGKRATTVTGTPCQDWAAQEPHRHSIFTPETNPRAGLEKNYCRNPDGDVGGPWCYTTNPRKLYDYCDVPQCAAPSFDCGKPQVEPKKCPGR
UniProt P00747, 581-810 limits assumed, species assumed: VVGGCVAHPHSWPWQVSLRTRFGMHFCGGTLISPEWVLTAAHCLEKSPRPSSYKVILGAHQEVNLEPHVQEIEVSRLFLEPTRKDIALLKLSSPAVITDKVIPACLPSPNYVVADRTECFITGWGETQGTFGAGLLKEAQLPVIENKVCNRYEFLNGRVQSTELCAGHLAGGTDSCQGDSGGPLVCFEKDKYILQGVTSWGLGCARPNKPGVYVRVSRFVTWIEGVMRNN

Each structure is given as a SMILES string.

The target in one assay is F Xa (Homo sapiens, UniProt P00742). Put plainly: Inhibitory action against F Xa, analogous procedure (substrate Bzl-Ile-Glu-Gly-Arg pNA). Type of assay: biochemical. The note with it: final inhibitor concentration 0.6 mmol/1. The text has this:
F Xa substrate: Bzl-Ile-Glu-Gly-Arg pNA (50% of the Glu as the methyl ester) (c=3 mmol/liter)

A further assay addresses plasmin (Homo sapiens, UniProt P00747). Put plainly: Inhibitory action against plasmin, analogous procedure (substrate D-norvalylcyclohexylalanylarginyl paranitroanilide). Type of assay: biochemical. The conditions noted are these: final inhibitor concentration 0.6 mmol/1. An excerpt: (plasmin substrate: D-norvalylcyclohexylalanylarginyl paranitroanilide (c=3 mmol/l)).

As to `N=C(N)NCCCCCC(=O)Oc1ccc(CCC(=O)O)cc1` [4-carboxyethylphenyl ε-guanidinocaproate, reference compound], the “F X a inhibition” value at F Xa was found to be 91 % inhibition. Besides, the Plasmin inhibition on plasmin is given as 83 % inhibition.
